{"source": "patent US10765111B1", "about": "“Cryosolutions and uses thereof” (Akron Biotechnology, LLC, priority 2014, dated 2020)", "origin": "cited, not measured here"}
{"substance": "dextran-40", "values": [{"measurement": "remaining, retained", "setting": "retained for several more days after intravenous infusion", "result": 30, "unit": "%"}, {"measurement": "excreted in urine", "setting": "within the first 24 hours after intravenous infusion", "result": "~70", "unit": "%"}]}
